{"source": "patent US12613236B2", "about": "“Lung fibrosis model and methods of using the same” (DUKE UNIVERSITY, priority 2019, dated 2026)", "key": {"[1]": {"tested_on": "AEC2s in alveolar organoids", "test": "Alveolar organoid culture treated with Nutlin-3a, Ki67 and AGER immunostaining", "type": "cell-based, mouse", "conditions": "organoids treated from day 7 until harvest on day 15; 2 μm; compared with controls (DMSO)", "procedure": "Alveolar organoid culture was performed as described previously (Barkauskas et al., 2013, J. Clin. Invest. 123:1118-1123). Briefly, lineage-labeled AEC2s (1-3×10^3) from Sftpc-GFP or Sftpc-CreER; R26R-tdTomato mice treated with Tmx were sorted by FACS, and PDGFRα+(5×10^4) fibroblasts were resuspended in MTEC/Plus and mixed with an equal amount of growth-factor-reduced Matrigel (Corning, 354230). The medium was changed every other day."}, "TP53 signaling": {"tested_on": "TP53 signaling", "test": "Nutlin-3a treatment after bleomycin injury in Sftpc-CreER; R26R-tdTomato mice, AGER immunostaining", "conditions": "bleomycin-injured mice; 20 mg kg-1 d-1 intraperitoneal, days 8-18 after injury; tissue collected day 20; compared with DMSO"}}, "data": [{"compound": "COc1ccc(C2=N[C@@H](c3ccc(Cl)cc3)[C@@H](c3ccc(Cl)cc3)N2C(=O)N2CCNC(=O)C2)c(OC(C)C)c1", "note": "[Nutlin-3a]", "values": [{"measurement": "number and intensity of AGER+ cells", "setting": "[1]", "result": "an increase in the number and intensity of AGER+ cells"}, {"measurement": "number of Ki67+ proliferating cells", "setting": "[1]", "result": "a decrease in the number of Ki67+ proliferating cells"}, {"measurement": "differentiation of Sftpc-tdt+ cells into AEC1s (AGER+ proportion of total Sftpc-tdt+ cells)", "setting": "TP53 signaling", "result": "significantly higher differentiation of Sftpc-tdt+ cells into AEC1s"}]}]}
